SMILES strings stand for the structures.

Chains of the proteins cited; added tags and fusions are not shown. Lines headed by an entry give the natural chain unless they say otherwise; changes in a name come on top.
UniProt P28335: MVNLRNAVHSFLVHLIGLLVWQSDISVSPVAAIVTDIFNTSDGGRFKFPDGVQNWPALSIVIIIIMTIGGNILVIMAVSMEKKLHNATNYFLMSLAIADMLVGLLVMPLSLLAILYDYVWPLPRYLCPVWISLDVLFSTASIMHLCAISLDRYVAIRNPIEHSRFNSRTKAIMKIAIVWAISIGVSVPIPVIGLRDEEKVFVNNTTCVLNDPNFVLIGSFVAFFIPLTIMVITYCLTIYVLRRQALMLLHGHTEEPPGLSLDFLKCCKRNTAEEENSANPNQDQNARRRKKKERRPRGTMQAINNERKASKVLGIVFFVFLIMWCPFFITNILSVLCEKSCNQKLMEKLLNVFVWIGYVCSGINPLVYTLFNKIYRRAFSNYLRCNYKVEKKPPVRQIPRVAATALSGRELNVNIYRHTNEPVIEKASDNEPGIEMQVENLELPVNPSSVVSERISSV

This assay concerns the target T1, 5-HT2C (h) (Homo sapiens, UniProt P28335).
T1 construct: gene HTR2C
The assay can be described thus: cell-based.

In turn, `Cn1ccc2cc3c(cc21)CCN3C(=O)Nc1cccnc1` [SB 206553] yielded a Kb of 2.9 nM.

The values above are taken from paper PMC10046369, “Low-Affinity/High-Selectivity Dopamine Transport Inhibition Sufficient to Rescue Cognitive Functions in the Aging Rat” (Biomolecules, 2023).
